# Only a part is listed here, and it is no random draw. Inconclusive results are not listed. Active and inactive are the calls of the source. Calls follow the shape of the dose curve; as a rule, active = well fitted inhibition curve with a large enough effect; inconclusive = small, poorly fitted or top-dose-only effect; inactive = no such curve, though single readings can be large or run the other way.
# Assay: qHTS Assay for Inhibitors of the ERK Signaling Pathway using a Homogeneous Screening Assay; also: nearly all actives have a fitted effect of over 55% in size
# Details: HEK293-V1b, vasopressin-stimulated pERK AlphaScreen
# Text: qHTS Assay for Inhibitors of the ERK Signaling Pathway using a Homogeneous Screening Assay; also: nearly all actives have a fitted effect of over 55% in size
# NIH Chemical Genomics Center [NCGC]
# NIH Molecular Libraries Screening Centers Network [MLSCN]
# Assay Submitter (PI): Dr. Wei Zheng, NCGC/NIH
# The Ras/extracellular-signal-regulated kinase (ERK) mitogen activated protein (MAP) kinase signaling pathway (ERK1/2 cascade) plays is a key role in transmitting signals from the cell surface to the nucleus (Nishida and Gotoh 1993; Chang and Karin, 2001). The cascade is initiated by the small G-protein Ras, which recruits Raf […], where activation occurs. Alternatively, this pathway can be activated by elevating intracellular cAMP.
# Activation of the ERK pathway is essential in increased cell division and cell survival. […]
# HEK293 cells stably expressing type-1 vasopressin receptor (V1b) were maintained in DMEM medium (Invitrogen, Carlsbad, CA) at 37C under a humidified atmosphere containing 5% CO2 and 95% air. […] The ERK phosphorylation in cells was determined using an AlphaScreen assay kit provided by PerkinElmer. […] AC50 values were determined from concentration-response data modeled with the standard Hill equation. […]
# (10) Detect the assay plate in an EnVision plate reader (PerkinElmer) using the AlphaScreen detection mode. […]
# Potency is read from the fitted curve at half-maximal effect.
row,SMILES,Potency
1,COc1cccc(-c2cc(=O)c3ccccc3o2)c1N,active: 3.98 µM

# — PubChem BioAssay AID995 (National Center for Advancing Translational Sciences (NCATS), 2007)
